Activity calls are given as the source filed them. No cut-off for these calls is given here.
Key:
Type in all cases: cell-based
Details in all cases: HEK293-A
[1] = biological target: Probable G-protein coupled receptor 34 (Mus musculus) (UniProt Q9R1K6); assay: Agonist activity at mouse GPR34 expressed in HEK293A cells cotransfected with chimeric Galphaq/il after 1.5 hrs by alkaline phosphatase tagged-TGFalpha shedding assay
[2] = biological target: Probable G-protein coupled receptor 34 (Mus musculus) (UniProt Q9R1K6); assay: Intrinsic activity at mouse GPR34 expressed in HEK293A cells cotransfected with chimeric Galphaq/il after 1.5 hrs by alkaline phosphatase tagged-TGFalpha shedding assay relative to O-(Hydroxy(((2R,3R)-2-(((3-(2-((3-phenoxybenzyl)oxy)phenyl)-propanoyl)oxy)methyl)tetrahydro-2H-pyran-3-yl)oxy)phosphoryl)-L-serine
How it was run: (§1)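 RIA is Emax/EC50 from the AP-TGFα shedding concentration–response fits, expressed relative to a reference agonist, whose RIA is 1 by definition. It is a dimensionless estimate of agonist activity. The GPR34 assay used HEK293A cells with chimeric Gαq/i1 and a 1.5 h incubation; the P2Y10 assay used HEK293A cells.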

Amino acid sequences for entries named in this document (tags omitted). A change or cut given only in a name is not applied to a line headed by its entry.
UniProt Q9R1K6: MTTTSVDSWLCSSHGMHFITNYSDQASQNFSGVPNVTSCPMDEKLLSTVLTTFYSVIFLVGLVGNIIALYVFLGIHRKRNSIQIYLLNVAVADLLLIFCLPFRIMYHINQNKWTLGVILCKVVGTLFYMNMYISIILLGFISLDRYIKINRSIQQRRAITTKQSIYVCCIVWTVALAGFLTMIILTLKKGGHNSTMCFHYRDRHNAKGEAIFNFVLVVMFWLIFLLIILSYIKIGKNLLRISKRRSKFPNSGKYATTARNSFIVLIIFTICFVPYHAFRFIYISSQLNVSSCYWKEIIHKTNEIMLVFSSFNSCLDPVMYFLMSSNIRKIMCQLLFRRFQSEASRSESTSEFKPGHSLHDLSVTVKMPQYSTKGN
UniProt Q8BFU7: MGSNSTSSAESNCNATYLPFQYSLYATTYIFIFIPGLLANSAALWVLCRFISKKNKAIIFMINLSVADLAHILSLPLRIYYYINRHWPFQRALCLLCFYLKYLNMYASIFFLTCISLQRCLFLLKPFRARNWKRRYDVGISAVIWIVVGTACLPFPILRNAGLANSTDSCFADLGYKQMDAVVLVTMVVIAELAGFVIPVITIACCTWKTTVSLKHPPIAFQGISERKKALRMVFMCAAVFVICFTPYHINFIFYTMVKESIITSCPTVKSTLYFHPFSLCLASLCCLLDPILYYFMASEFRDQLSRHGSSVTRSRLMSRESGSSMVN

[3] = biological target: Putative P2Y purinoceptor 10 (Mus musculus) (UniProt Q8BFU7); assay: Intrinsic activity at mouse P2Y10 receptor expressed in HEK293A cells after 1.5 hrs by alkaline phosphatase tagged-TGFalpha shedding assay relative to diF-C3-ph-o-O-C11; how it was run: as §1
[4] = biological target: Putative P2Y purinoceptor 10 (Mus musculus) (UniProt Q8BFU7); assay: Agonist activity at mouse P2Y10 receptor expressed in HEK293A cells after 1.5 hrs by alkaline phosphatase tagged-TGFalpha shedding assay
How it was run: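 Transient transfection of HEK293 cells with AP-TGFα plus the mouse receptor. For GPR34, HEK293A cells also got a chimeric Gαq/i1 subunit; P2Y10 was run in HEK293A and GPR174 in HEK293FT. Cells were seeded 24 h post-transfection in 5 mM HEPES (pH 7.4) HBSS onto serial 3.2-fold compound dilutions (top final 32 μM or lower, limited by mock-cell signal). Ki16425 was present, and incubation ran 1.5 h.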

Row | Emax [1] | Intrinsic activity [2] | pEC50 [1] | Intrinsic activity [3] | Emax [4] | pEC50 [4] | Compound
1 | 5% | 0.086 |  |  |  |  | CCCCCCCCCCCOc1ccccc1CCC(=O)OC[C@H]1OCC=C[C@H]1OP(=O)(O)OC[C@H](N)C(=O)O
2 | inactive | inactive | inactive |  |  |  | N[C@@H](COP(=O)(O)O[C@@H]1CCCO[C@@H]1COC(=O)CCc1ccc(OCc2cccc(Oc3ccccc3)c2)cc1)C(=O)O
3 | 3.8% | 0.089 |  |  |  |  | CCCCCCCC/C=C\CCCCCCCC(=O)O[C@@H]1C=CCO[C@@H]1COP(=O)(O)OC[C@H](N)C(=O)O
4 | < 3% | inactive | inactive |  |  |  | CCCCCCCCCCCOc1ccccc1CCC(=O)OC[C@H]1OCC=C[C@@H]1OP(=O)(O)OC[C@H](N)C(=O)O
5 |  |  |  | inactive | < 3% | inactive | CCCCCCCC/C=C\CCCCCCCC(=O)OC[C@@H]1OCCC[C@@H]1OP(=O)(O)OC[C@@H](N)C(=O)O (single isomer, unassigned)
6 | inactive | inactive | inactive |  |  |  | N[C@@H](COP(=O)(O)OC[C@H]1OCCC[C@H]1OC(=O)CCc1cccc(OCc2cccc(Oc3ccccc3)c2)c1)C(=O)O
7 |  |  |  | 0.0014 | 3.9% |  | CCCCCCCC/C=C\CCCCCCCC(=O)OC[C@@H]1OCCC[C@H]1OP(=O)(O)OC[C@@H](N)C(=O)O (single isomer, unassigned)
8 | inactive | inactive |  | inactive | inactive |  | CCCCCCCC/C=C\CCCCCCCC(=O)O[C@@H]1CCCO[C@@H]1COP(=O)(O)OC[C@H](N)C(=O)O
9 | inactive | inactive | inactive | inactive | inactive | inactive | CCCCCCCC/C=C\CCCCCCCC(=O)O[C@H]1CCCO[C@@H]1COP(=O)(O)OC[C@H](N)C(=O)O
10 |  |  |  | inactive | inactive | inactive | Cc1ccc(Oc2cccc(COc3ccccc3CCC(=O)O[C@@H]3CCCO[C@@H]3COP(=O)(O)OC[C@H](N)C(=O)O)c2)cc1
11 | inactive | inactive | inactive |  |  |  | CCCCCCCC/C=C\CCCCCCCC(=O)O[C@H]1C=CCO[C@@H]1COP(=O)(O)OC[C@H](N)C(=O)O

Row | Compound | Emax [1] | Intrinsic activity [2] | pEC50 [1] | Intrinsic activity [3] | Emax [4] | pEC50 [4]
12 | CCCCCCCCCCCOc1ccccc1CCC(=O)OCc1ccc(OP(=O)(O)OC[C@H](N)C(=O)O)cc1 | inactive | inactive | inactive |  |  | 
13 | CCCCCCCCCCCOc1ccccc1CCC(=O)OCc1cccc(OP(=O)(O)OC[C@H](N)C(=O)O)c1 | inactive | inactive | inactive |  |  | 

From ChEMBL document CHEMBL3813596, “Conformational Constraint of the Glycerol Moiety of Lysophosphatidylserine Affords Compounds with Receptor Subtype Selectivity” (J Med Chem, 2016)
